Data reported in patent US9730915B2, “Method for preventing or treating diseases associated with a reduced density of interferon receptors” (OBSCHESTVO S OGRANICHENNOI OTVETSTVENNOSTIYU …, priority 2013, dated 2017).

System: protein MxA
Assay: Cell sensitivity to interferon: MxA protein immunoblot in A-549 cells
Assay type: cell-based
Settings: interferon alone at 1 IU (line 4, FIG. 3)
Excerpt: An increase in the density of interferon receptors on a cell surface must result in an increased sensitivity of cells to weak signals of endogenous interferon under conditions when its signaling is suppressed by a viral infection. […] Cell lysates were undergone to the procedure of immunoblot analysis (western blotting) by using monoclonal antibodies against to protein MxA (sc-50509, Santa Cruz Biotechnology) to stain membranes by a chemiluminescence method using a substrate (chemiluminescent reagent SUPER SIGNAL® West Femto Chemiluminescent Substrate (Thermo Fisher Scientific)). The protein MxA was selected as an indicator product that is indicative of the expression of interferon-stimulated genes (ISGs) when the cells are treated with interferon.

Question: Which “synthesis of MxA protein” value does the source give for “Interferon: interferon-alpha (IFNα: ROFERON-A3®, Roche Molecular Biochemicals, Mannheim)” here?
Answer: did not induce the synthesis
